Assay results from article PMC12154284, “FYCO1 Peptide Analogs: Design and Characterization of Autophagy Inhibitors as Co-Adjuvants in Taxane Chemotherapy of Prostate Cancer” (International Journal of Molecular Sciences, 2025).
Blank lines part the entries; values can stand above or below the molecule they belong to.

Key:
[1] = biological target: human recombinant His-tagged LC3B (Homo sapiens, UniProt Q9GZQ8); assay: MST binding to human recombinant His-tagged LC3B; details: for Kd: MST power 40%, exc. power 20%, 25 °C, LC3B 10 nM, two independent experiments, read-out: Kd (Table S1)
Procedure: To measure the dissociation constants (Kd) of the peptides on human recombinant His-tagged LC3B protein, MST experiments were carried out on a Monolith NT.115^Pico instrument (see the Materials and Methods section for details). […] To note, the slightly lower Kd value observed by Cerulli and coworkers could be explained by the presence of additional D and W residues in the amino- and carboxy-terminal groups, respectively, in the FYCO1 sequence tested by them. Next, the binding affinity of the peptides AM2, AM6, AM7, and AM10 to the human LC3B protein was assessed. […] In addition, from the MST experiments, it is clearly observable that the iodine group of AM2 stabilizes the complex; in fact, the points of the Kd curve fit much better, and this is reflected in a high signal-to-noise ratio (SNR) value (14.4, Supplementary Materials, Table S1).
The interaction between peptides (FYCO1-LIR, AM2, AM6, AM7, AM10) and the LC3B protein was evaluated using the Monolith NT.115^Pico instrument (NanoTemper Technologies GmbH, München, Germany). This technique enables the determination of the dissociation constant (Kd) across a concentration range spanning from 1 picomolar (pM) to the millimolar (mM) level. The experimental conditions mirrored those in our previously published work. […] A constant concentration of red-labelled LC3B (10 nM) was incubated with sixteen 1:1 serial dilutions of peptides (concentration details are consultable in the Supplementary Materials, Table S1). […] After 15 min of incubation at room temperature, samples were loaded into standard capillaries (Product No. MO-K022; NanoTemper Technologies) and analyzed at 25 °C with 20% excitation power and medium MST power (40%) using the “Binding Affinity” mode available in the MO.Control v1.6 software (NanoTemper Technologies GmbH, München, Germany). Prior to Kd determination, peptide auto-fluorescence was assessed. […] The “Capillary Scan” graphs, showing the fluorescence homogeneity in the capillaries of all biophysically tested peptides, are provided in the Supplementary Materials, Figure S5. […]

[2] = tested on: MCF-7 cells; assay: MTS cell viability, MCF-7; type: cell-based; details: 72 h
Procedure: The study was conducted on several cancer cells. Human CRPC cell lines (PC-3 and DU145) were purchased from the American Type Culture Collection (ATCC, Manassas, VA, USA) and cultured at 37 °C and 5% CO2 in RPMI 1640 (EuroClone, Milano, Italy) supplemented, respectively, with 7.5% (PC3) and 5% (DU145) FBS (Gibco, ThermoFisher Scientific, Waltham, MA, USA), 1% L-glutamine, and antibiotics (100 IU/mL penicillin G). […]
For viability studies, MTS (Cell Titer 96 Aqueous One Solution Cell Proliferation Assay) (Promega, Nacka, Sweden) and 3-(4,5-dimethylthiazole-2-yl)-2,5-diphenyltetrazolium bromide (MTT) (Sigma-Aldrich, St. Louis, MO, USA) assays were conducted. […] The absorbance (λ = 550 nm) was measured by an EnSpire Multimode Plate reader (Perkin Elmer, Milano, Italy). The absorbance value of untreated cells was set at 100% (control), and the viability of treated cells was expressed as a percentage of the control. […] After 72 h, cell viability was assessed using an MTS assay according to the manufacturer’s protocol using a 96-well-plate spectrophotometer (Varioskan Flash Multimode Reader; ThermoFisher Scientific, Waltham, MA, USA) set at λ = 490 nm. The absorbance value of untreated cells was set at 100% (control), and the viability of treated cells was expressed as a percentage of the control. […]

[3] = tested on: LC3-I and LC3-II in PC-3 cells; assay: Western blot of LC3-I and LC3-II in PC-3 cells; type: cell-based, Human
Procedure: PC-3 cells were plated at 2 × 10^5 cells/dish in 6 cm dishes and treated with different compounds. At the end of the treatments the cells were lysed in RIPA buffer. Protein extracts (15–35 μg) were resuspended in presence of reducing Sample buffer (Bio-Rad Laboratories, Segrate, Milano, Italy), heated at 95 °C for 5 min and separated by SDS-PAGE WB. Proteins were transferred onto nitrocellulose or PVDF membranes. After blocking with nonfat dried milk, membranes were incubated with anti-ATG5 (1:1000) (#12994) Cell Signaling Technology Inc. (Boston, MA, USA), anti-LC3 (1:1000) (L8918) (Sigma-Aldrich), anti-SQSTM1/p62 (1:2000) (PA5-20839) (Thermo Fisher Scientific, Waltham, MA, USA), anti-cleaved-caspase-3 (1:500) (#9664) Cell Signaling Technology Inc. primary antibodies overnight at 4 °C. Horseradish peroxidase (HRP) conjugated secondary anti-rabbit or anti-mouse antibodies were used for 1 h at room temperature and the membranes were processed using chemiluminescence kit Cyanagen Ultra (Cyanagen, Bologna, Italy). In each WB experiment alpha-tubulin expression (T6199) (Sigma-Aldrich, St. Louis, MO, USA) was evaluated as a protein control. Relative optical density of the bands was assessed by ImageJ software (version 1.54g). Uncropped WB images are available in the Supporting Information.

Kd relative to FYCO1-LIR, in words ([1]; MST): nearly halved the Kd value
SMILES: CC[C@H](C)[C@H](NC(=O)[C@H](CC(=O)O)NC(=O)[C@H](Cc1ccc(I)cc1)NC(=O)[C@@H](NC(=O)[C@H](C)NC(=O)[C@@H](N)CC(=O)O)C(C)C)C(=O)N[C@H](C(=O)N[C@H](C(=O)N[C@@H](CC(=O)O)C(=O)N[C@@H](CCC(=O)O)C(=O)N[C@@H](CCC(=O)O)C(=O)N[C@@H](CC(C)C)C(=O)O)[C@@H](C)O)[C@@H](C)CC [AM2]

Kd [1]: 0.615 ± 0.228 µM
SMILES: CC[C@H](C)[C@H](NC(=O)[C@H](CC(=O)O)NC(=O)[C@H](Cc1ccccc1)NC(=O)[C@@H](NC(=O)[C@H](C)NC(=O)[C@@H](N)CC(=O)O)C(C)C)C(=O)N[C@@H](CCSC)C(=O)N[C@H](C(=O)N[C@H]1CSSC[C@@H](C(=O)O)NC(=O)[C@H](CCC(=O)O)NC(=O)[C@H](CCC(=O)O)NC1=O)[C@@H](C)O [AM6]

SMILES: CC[C@H](C)[C@H](NC(=O)[C@H](CC(=O)O)NC(=O)[C@H](Cc1ccc(I)cc1)NC(=O)[C@@H](NC(=O)[C@H](C)NC(=O)[C@@H](N)CC(=O)O)C(C)C)C(=O)N[C@@H](CCSC)C(=O)N[C@H](C(=O)N[C@H]1CSSC[C@@H](C(=O)O)NC(=O)[C@H](CCC(=O)O)NC(=O)[C@H](CCC(=O)O)NC1=O)[C@@H](C)O [AM10]
responsiveness of MCF-7 relative to A549 and A375 [2]: MCF-7 cells are more responsive than the other tested cell lines
LC3-II/LC3-I ratio, 48 h ([3]; 5 µM): without modifying the LC3-II/LC3-I ratio
LC3-II/LC3-I ratio, Doc/AM10 experiment ([3]; 48 h): does not determine a change in the LC3-II/LC3-I ratio

Kd [1]: 3.59 ± 1.16 µM
SMILES: CC[C@H](C)[C@H](NC(=O)[C@H](CC(=O)O)NC(=O)[C@H](Cc1ccccc1)NC(=O)[C@@H](NC(=O)[C@H](C)NC(=O)[C@@H](N)CC(=O)O)C(C)C)C(=O)N[C@H](C(=O)N[C@H](C(=O)N[C@@H](CC(=O)O)C(=O)N[C@@H](CCC(=O)O)C(=O)N[C@@H](CCC(=O)O)C(=O)N[C@@H](CC(C)C)C(=O)O)[C@@H](C)O)[C@@H](C)CC [FYCO1-LIR, reference compound]
